The source of these data is publication PMC6152622, “Synthesis and Evaluation of Phenylxanthine Derivatives as Potential Dual A2AR Antagonists/MAO-B Inhibitors for Parkinson’s Disease” (Molecules : A Journal of Synthetic Chemistry and Natural …, 2017).

By UniProt entry, the sequences of proteins in these tests, tags left out.
UniProt P27338, whole entry: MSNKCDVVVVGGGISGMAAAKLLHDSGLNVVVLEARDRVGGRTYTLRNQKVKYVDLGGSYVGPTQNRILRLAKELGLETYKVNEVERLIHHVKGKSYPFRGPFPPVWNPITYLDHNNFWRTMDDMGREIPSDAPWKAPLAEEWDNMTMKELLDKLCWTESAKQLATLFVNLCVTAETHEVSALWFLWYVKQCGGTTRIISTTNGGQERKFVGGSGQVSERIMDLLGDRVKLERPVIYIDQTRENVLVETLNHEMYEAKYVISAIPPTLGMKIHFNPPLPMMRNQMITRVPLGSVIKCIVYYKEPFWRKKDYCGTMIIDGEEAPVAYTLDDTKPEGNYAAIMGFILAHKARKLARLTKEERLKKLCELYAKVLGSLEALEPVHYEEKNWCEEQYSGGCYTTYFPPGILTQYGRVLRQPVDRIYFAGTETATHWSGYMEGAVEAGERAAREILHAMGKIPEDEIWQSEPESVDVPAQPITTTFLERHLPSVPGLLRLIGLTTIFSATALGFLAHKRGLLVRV

Usually Ki stands for a dissociation constant, usually derived from enzyme kinetics or from competition with a known ligand. Broadly, the Cmax is the highest concentration seen after dosing. The Tmax is the time at which the peak concentration occurs.

A value given as a limit tells only on which side of the number the result lay.

One data set deals with human A2AR (Homo sapiens, UniProt P29274). The data set is described as follows: Radioligand binding assay ([3H]ZM241385 competition) on membranes of HEK-293 cells transfected with human A2AR. The note with it: read-out: Ki hA2AR; [3H]ZM241385 displacement; Ki converted from IC50 by Cheng-Prusoff; duplicate, mean ± SD.
A further data set concerns the target recombinant human MAO-B (Homo sapiens, UniProt P27338). The data set is described as follows: MAO-B inhibition, MAO-Glo commercial kit. The note with it: read-out: Ki hMAO-B; Ki converted from IC50 by Cheng-Prusoff; duplicate, mean ± SD. How it is done:
Inhibitory potency on MAO-B enzyme from recombinant human MAO-B were carried out by a fluorometric method with a commercial kit (Promega, MAO-Glo Assay). The MAO enzyme incubation experiments were carried with a MAO-B substrate, methyl (S)-2-(6-(2-aminoethoxy) benzo[d]thiazol-2-yl)-4,5-dihydrothiazole-4-carboxylate, which was converted to luciferin methyl ester. Then the “Luciferin Detection Reagent” was added to change the methyl ester derivative to luciferin, stop the MAO-B reaction, and simultaneously produce light. The intensity of light is directly in proportion to MAO-B activity. The assay was carried in a 96-well black opaque microplate in duplicate. The reaction mixture was composed of 12.5 μL of MAO-B substrate (a final concentration of 4 μM), 25 μL of human MAO-B (1 μg of protein/well), and 12.5 μL of test compounds for each well. After 1 h of incubation at 37 °C, each well added 50 μL of “Luciferin Detection Reagent”, and incubated an additional 20 min. the luminescent signal of microplate was measured by a luminometer. The signal from reaction of MAO-B enzyme and substrate without inhibitors accounted as the positive control, whereas the signal from reaction of MAO-B enzyme and inhibitors in the absence of substrate accounted as the negative control. Compound concentrations of 1 μM were tested at first. IC50 values (the half maximal inhibitory concentration) were performed from concentration–response curves, plotted by the GraphPad Prism software. All experiments were performed in duplicate, and data are expressed as mean ± SD.

Data set [1] in a line: Plasma pharmacokinetics after i.p. administration. To be noted: rats, 50 mg/kg, n = 6. The source says: (§1) Sprague-Dawley rats (200 ± 20 g) were obtained from the Laboratory Animal Center of Wenzhou Medical University (Wenzhou, China) to study the pharmacokinetics and tissue distribution studies (TDS) of PX-D-P6 and PX-E-P8 following intraperitoneal injection (i.p.) administration. The experiment procedures and protocols were approved the Animal Care and Use Committee of Wenzhou Medical College and complied with the Guide for the Care and Use of Laboratory Animals. The corresponding ethical approval code was WMU20161025.
(§2) The chosen compounds dissolved in suspension formulation (2 % Tween 80–saline) were administered to each rat at a dose of 50 mg/kg. Blood samples (0.3 mL) were collected from the caudal vein into 1.5 mL tapered plastic centrifuge tubes (pretreated with K2EDTA as an anticoagulant) at pre-dose, 0.08, 0.16, 0.25, 0.5, 1, 2, 4, 8, 12, 24 h after i.p. administration. Separately, blood and brain samples were collected at pre-dose and 1 h for TDS. Blood samples were immediately centrifuged at 3000 g for 10 min for isolation of the plasma. Brain samples were homogenized in phosphate buffer saline. 100 μL plasma or 200 μL brain sample was precipitated with addition of 400 μL acetonitrile and vortex mixed for 1 min and centrifuged at 10,000 g for 10 min. Finally, 2μL supernatant was injected into UPLC/MS system. Calibration standards samples were prepared with blank rat plasma or brain homogenates. Plasma pharmacokinetic parameters were analyzed by DAS (Drug and Statistics) software (Version 2, Wenzhou Medical University, Wenzhou, China).

The nature of data set [2]: Plasma and brain distribution at 1 h after i.p. administration. To be noted: rats, 1 h after i.p. 50 mg/kg.
Source text: as §1, §2

In data set [3] the test system is haloperidol-induced catalepsy in rats. Briefly: Haloperidol-induced catalepsy, bar test. The note with it: i.p. How it is done: Catalepsy was measured using a thin metal bar test at 9.0 cm height. In this test, each rat was injected intraperitoneally by haloperidol (1.5 mg/kg). Before i.p. administration of vehicle (2% Tween 80–saline), PX-D-P6 and PX-E-P8 (5, 15, 50 mg/kg), at time 0 min, we tested all rats for successful induction of catalepsy. The length of time (descent latency) it persisted in hanging onto the metal bar was measured for a period of up to 300 s (maximum score). After this period, the rat was gently removed from the bar. The high bar test was performed 20 min after the injection of compound. Descent latencies have been presented as median and interquartile ranges. Differences between medians were analyzed by Kruskal-Wallis test, followed by Bonferroni's test.

On to `Cn1c(=O)c2[nH]c(-c3cccc(NC(=O)c4ccccc4)c3)nc2n(C)c1=O`, for which the Ki is 2910 nM at human A2AR and 3110 nM on recombinant human MAO-B.

`Cn1c(=O)c2c(nc(-c3cccc(NC(=O)/C=C/c4ccc(F)cc4)c3)n2C)n(C)c1=O`: the Ki on human A2AR came out at 7740 nM; at recombinant human MAO-B it was 2580 nM.

`Cc1ccc(C(=O)Nc2cccc(-c3nc4c(c(=O)n(C)c(=O)n4C)n3C)c2)cc1`: the Ki at human A2AR came to 2780 nM; at recombinant human MAO-B it was 2570 nM.

Turning to `Cn1c(=O)c2[nH]c(-c3cccc(NC(=O)/C=C/c4ccccc4)c3)nc2n(C)c1=O`, the Ki at human A2AR stood at 9650 nM.

With `COc1ccc(C(=O)Nc2cccc(-c3nc4c([nH]3)c(=O)n(C)c(=O)n4C)c2)cc1`, the Ki at human A2AR came out at 3770 nM; on recombinant human MAO-B it was 2570 nM.

In the case of `Cn1c(=O)c2[nH]c(-c3cccc(NC(=O)/C=C/c4cccc(C(F)(F)F)c4)c3)nc2n(C)c1=O`, the values for the Ki at human A2AR and at recombinant human MAO-B were 7440 nM and 2630 nM, respectively.

`Cn1c(=O)c2[nH]c(-c3ccc(NC(=O)/C=C/c4ccccc4)cc3)nc2n(C)c1=O`: the Ki is 4970 nM on human A2AR and 8110 nM on recombinant human MAO-B.

For the compound `Cn1c(=O)c2c(nc(-c3ccc(NC(=O)c4ccccc4)cc3)n2C)n(C)c1=O`, in data set [1], the AUC0→t came out at 30526.2 ± 1206.7 ng·h/mL, the CL is 91.2 ± 20.5 mL/min/kg, the Cmax is on record as 2112.6 ± 508.4 ng/mL and the Tmax was 0.51 ± 0.15 h. Further, the t1/2 in data set [1] was 4.51 ± 0.61 h. The B/P Ratio (brain/plasma ratio) in data set [2] was 1.14. In data set [2] (n = 6), the Brain concentration turned out to be 1289 ± 132 ng/g and the Plasma concentration is recorded as 1126 ± 207 ng/mL. In addition, the Anti-catalepsy ability entry in data set [3] (50 mg/kg (high dose)) is “significant anti-catalepsy ability”. Also, the “Effect on haloperidol-induced catalepsy” value in data set [3] (different doses (5, 15 and 50 mg/kg), haloperidol 1.5 mg/kg) is recorded as “significant reduction in catalepsy”.

Regarding `Cn1c(=O)c2c(nc(-c3ccc(NC(=O)/C=C/c4ccc(F)cc4)cc3)n2C)n(C)c1=O`, the Ki at human A2AR stood at 790 nM; at recombinant human MAO-B, 5040 nM.

As to `Cn1c(=O)c2[nH]c(-c3ccc(NC(=O)/C=C/c4cccc(C(F)(F)F)c4)cc3)nc2n(C)c1=O`, the Ki came to 5180 nM on human A2AR and 4220 nM on recombinant human MAO-B.

Turning to `Cn1c(=O)c2c(nc(-c3ccc(NC(=O)/C=C/c4ccccc4)cc3)n2C)n(C)c1=O`, the Ki at human A2AR is 1460 nM; at recombinant human MAO-B, > 10000 nM.

As for `COc1ccc(C(=O)Nc2ccc(-c3nc4c(c(=O)n(C)c(=O)n4C)n3C)cc2)cc1`, the Ki came to 1190 nM on human A2AR and 470 nM at recombinant human MAO-B.

On to `Cn1c(=O)c2[nH]c(-c3cccc(NC(=O)/C=C/c4cccc(Cl)c4)c3)nc2n(C)c1=O`, for which the values for the Ki on human A2AR and on recombinant human MAO-B were 9580 nM and > 10000 nM, respectively.

Turning to `Cn1c(=O)c2[nH]c(-c3cccc(NC(=O)/C=C/c4ccc(F)cc4)c3)nc2n(C)c1=O`, the Ki was 7230 nM on human A2AR and 2480 nM at recombinant human MAO-B.

Regarding `Cn1c(=O)c2c(nc(-c3cccc(NC(=O)/C=C/c4cccc(Cl)c4)c3)n2C)n(C)c1=O`, the Ki on human A2AR was 9180 nM; at recombinant human MAO-B, 2930 nM.

Take `Cn1c(=O)c2c(nc(-c3cccc(NC(=O)/C=C/c4cccc(C(F)(F)F)c4)c3)n2C)n(C)c1=O`: the values for the Ki on human A2AR and on recombinant human MAO-B were 7100 nM and 4760 nM, respectively.

With `COc1ccc(C(=O)Nc2cccc(-c3nc4c(c(=O)n(C)c(=O)n4C)n3C)c2)cc1`, the Ki on human A2AR came out at 3050 nM; on recombinant human MAO-B, 2860 nM.

`Cn1c(=O)c2[nH]c(-c3ccc(NC(=O)c4ccccc4)cc3)nc2n(C)c1=O`: the Ki amounted to 2310 nM on human A2AR and 1320 nM at recombinant human MAO-B.

On to `Cn1c(=O)c2[nH]c(-c3ccc(NC(=O)/C=C/c4ccc(F)cc4)cc3)nc2n(C)c1=O`, for which the Ki on human A2AR was found to be 3410 nM; at recombinant human MAO-B, 9360 nM.

Consider `Cc1ccc(C(=O)Nc2ccc(-c3nc4c(c(=O)n(C)c(=O)n4C)n3C)cc2)cc1`, for which the Ki at human A2AR is 390 nM; at recombinant human MAO-B, 1210 nM.

Regarding `Cn1c(=O)c2c(nc(-c3cccc(NC(=O)c4ccccc4)c3)n2C)n(C)c1=O`, the Ki at human A2AR is 2030 nM; at recombinant human MAO-B, 2260 nM.

As to `Cn1c(=O)c2c(nc(-c3ccc(NC(=O)/C=C/c4cccc(C(F)(F)F)c4)cc3)n2C)n(C)c1=O`, the Ki at human A2AR was 1980 nM; at recombinant human MAO-B, > 10000 nM.

Regarding `COc1ccc(C(=O)Nc2ccc(-c3nc4c([nH]3)c(=O)n(C)c(=O)n4C)cc2)cc1`, the Ki is 2670 nM on human A2AR and 2940 nM on recombinant human MAO-B.

For `Cn1c(=O)c2c(nc(-c3cccc(NC(=O)/C=C/c4ccccc4)c3)n2C)n(C)c1=O`, the Ki at human A2AR stood at 5250 nM; on recombinant human MAO-B, 3720 nM.

As to `Cc1ccc(C(=O)Nc2ccc(-c3nc4c([nH]3)c(=O)n(C)c(=O)n4C)cc2)cc1`, the figures for the Ki at human A2AR and on recombinant human MAO-B were 2870 nM and 2060 nM, respectively.

As for `Cc1ccc(C(=O)Nc2cccc(-c3nc4c([nH]3)c(=O)n(C)c(=O)n4C)c2)cc1`, the Ki on human A2AR was determined as 4510 nM; at recombinant human MAO-B it was 2170 nM.
